## AlphaSeq binding of Ab-95 light chain variants to a spike HR2 peptide

Reference: Engelhart et al. 2022, doi:10.1038/s41597-022-01779-4. File: FLAb, binding data.

Target: peptide PDVDLGDISGINAS, taken from heptad repeat 2 (HR2) of SARS-CoV-2 spike.

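The parent was found by panning a naive human phage display library on the peptide. AAYL52 was designed without a model: most single CDR substitutions and a random sample of double and triple ones. Affinity was read by AlphaSeq, a pooled yeast mating assay with surface-displayed partners. Binding brings cells together so that they mate, and sequencing counts the barcode pairs among the diploids. Read counts were normalised to the haploid input and turned into Kd by a linear fit to BCL2-family pairs of known affinity, for each replicate. The assay was run in three technical replicates.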

Ab-95 is the parent antibody, in scFv form: VH, then a 15-residue (Gly4Ser)3 linker, then VL. The heavy chain is unchanged in all variants.
VH: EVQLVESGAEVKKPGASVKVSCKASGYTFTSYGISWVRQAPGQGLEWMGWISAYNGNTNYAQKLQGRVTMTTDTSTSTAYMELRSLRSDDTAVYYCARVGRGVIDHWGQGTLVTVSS
VL: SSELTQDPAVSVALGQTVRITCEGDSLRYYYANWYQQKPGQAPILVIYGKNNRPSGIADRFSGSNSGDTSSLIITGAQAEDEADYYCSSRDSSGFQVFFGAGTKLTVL

The parent's light chain CDRs are EGDSLRYYYAN, GKNNRPS, SSRDSSGFQVF; each variant's own CDRs replace them letter for letter.
Numbers give log10(Kd / nM), so 0 is 1 nM and 3 is 1 µM. Smaller is tighter.
Averages over replicates are reported, and they cover detected replicates only.
An entry "ND" has no value in the source: the pair was not observed among the diploids in that replicate. This suggests poor binding but is not conclusive.
Three control strains display no target. For library AAYL52, 28% of the pairings with them gave a signal, with a median of 3.91 and one signal in twenty below 2.90, so weak values seen in few replicates may be background. Also given: how often the same scFv was detected with the empty control strains, with their mean in brackets.

| CDR-L1 | CDR-L2 | CDR-L3 | log10 Kd, replicates | mean log10 Kd (nM) | signal with controls |
|---|---|---|---|---|---|
| EGDSLRYYYQN | GKNNRPS | SSRDFIGFQVF | 4.40 / 3.44 / ND | 3.92 | 0 of 9 |
| EGDSLNYYYAN | GKNNRPS | SSRDSSNFQHF | ND / ND / ND | ND | 1 of 9 (5.26) |
| EGDSLRYYYAN | VKNNRPS | SSRDSSGYQVF | ND / ND / ND | ND | 2 of 9 (3.41) |
| EGDSLRYYYAN | GDNNPPS | SSRDASGFQVF | 2.80 / 3.11 / 3.44 | 3.11 | 1 of 9 (3.90) |
| ERVSLRYYYAN | GKNNRPS | SYRDSSGFQVF | ND / ND / ND | ND | 3 of 9 (3.79) |
| EGDSLRYHYAN | VKNNRPS | SERDSSGFQVF | ND / ND / ND | ND | 4 of 9 (4.01) |
| EGDSWNYYYAN | YKNNRPS | SSRDSSGFQVF | ND / ND / ND | ND | 1 of 9 (3.91) |
| EGDSLRYYYLN | MQNNRPS | SSRDSSGFQVF | ND / 3.65 / ND | 3.65 | 3 of 9 (3.40) |
| EGDILRYYYAN | GKNNRPS | SSRDSSSFQVF | 4.22 / ND / ND | 4.22 | 2 of 9 (4.03) |
| EGDSLRYYNAD | GKNNRPS | SSRDSSGFQVF | ND / 4.90 / ND | 4.90 | 1 of 9 (4.31) |
| EGPSLQYYYAN | GKNNRPS | SSVDSSGFQVF | ND / ND / ND | ND | 1 of 9 (3.93) |
| ERDSLRYYYAN | GKNLRPS | SSRDSFGFQVF | ND / 3.40 / 3.91 | 3.65 | 2 of 9 (3.27) |
| EGDSLRYYYMN | GKNNRPV | SSRDSSGFQVC | ND / 4.55 / 3.68 | 4.11 | 4 of 9 (4.15) |
| EGDSLRYVYAN | GFNNRPS | SSRDSSGFQRF | 4.04 / 3.89 / ND | 3.96 | 2 of 9 (4.05) |
| ESDSLRYYYAN | GKNNRPS | SSRDSSGFQVP | 2.09 / 3.58 / 2.47 | 2.72 | 3 of 9 (3.93) |
| EGDVLRYYYAN | GKCNRPS | SSGDSSGFQVF | 3.87 / ND / ND | 3.87 | 0 of 9 |
| RGDSLRYYYAN | GKNNRPS | SPRFSSGFQVF | 2.31 / 2.42 / 2.55 | 2.43 | 4 of 9 (3.88) |
| EGDSLRYYYAN | GKNNRPS | SSLDSSGFGVF | 2.32 / 2.43 / 3.13 | 2.63 | 3 of 9 (4.10) |
| EGDSLRYYYAN | GANNRPM | SSRDSSGFQVF | 2.16 / 2.11 / 1.96 | 2.08 | 5 of 9 (3.78) |
| EGDSLRYYYAN | MWNNRPS | SSRDSSGFQVF | ND / 3.71 / ND | 3.71 | 6 of 9 (4.07) |
| EGDMLRYYYAN | GKKNRPS | SSRDSSGFQVR | ND / ND / ND | ND | 1 of 9 (3.40) |
| EGDSLRYYYAE | GKNNRPI | SSRDSSTFQVF | 4.81 / ND / ND | 4.81 | 4 of 9 (4.22) |
| EGDSLRYIYAN | GKNNRPS | SSRASSGFQVF | 2.46 / 2.21 / 1.62 | 2.09 | 4 of 9 (4.19) |
| EGDSHRYYYAN | GKNNRSC | SSRDSSGFQVF | 5.53 / ND / ND | 5.53 | 3 of 9 (4.18) |
| EGKSLRSYYAN | GKNIRPS | SSRDSSGFQVF | 1.98 / 1.72 / 1.32 | 1.67 | 5 of 9 (3.50) |
| EGDSLRYYYAN | GKNNRPS | SSRGSTGFQVF | 2.76 / 2.54 / 2.53 | 2.61 | 4 of 9 (3.84) |
| EGDSLRYPYAN | GKNNRPS | SSRDSSGFNVC | 1.35 / 1.51 / 1.01 | 1.29 | 3 of 9 (4.12) |
| EGDSLREFYAN | GKNNRPS | SSRDSSGFQVF | 4.92 / 3.81 / 3.70 | 4.14 | 2 of 9 (5.19) |
| EGDSLRYYYAV | GKNNRPS | SSFDSSGFQVG | 4.34 / ND / 4.16 | 4.25 | 1 of 9 (3.09) |
| EGDSLRYYYWN | GKNNRPS | NSRDSSGRQVF | ND / ND / ND | ND | 0 of 9 |
| EGDSLRYYSAN | GKNNRPS | SSRDSSEFQVR | 4.36 / ND / ND | 4.36 | 5 of 9 (3.23) |
| EGDDLRYYYAN | GKNNMPS | SSRDSSGPQVF | 3.58 / ND / 4.28 | 3.93 | 4 of 9 (4.28) |
| HGDSLRYYYAN | GKNNRPS | SSEQSSGFQVF | 2.41 / 2.44 / 1.96 | 2.27 | 0 of 9 |
| EGDSLRYYYAN | GKNMRPS | SSRHSSGFQVF | 3.82 / 3.44 / ND | 3.63 | 0 of 9 |
| EGDILRYYYAN | GKNNRPS | LSRDWSGFQVF | 3.36 / ND / ND | 3.36 | 1 of 9 (3.31) |
| EGDSLRYYYAN | GKNNRGS | SSRDSSGFQVI | 3.83 / 3.47 / 2.98 | 3.43 | 7 of 9 (3.80) |
| EGDSLRYYYAN | GKNNRPS | SSRDTSGDQVR | 1.93 / 1.82 / 1.58 | 1.78 | 3 of 9 (4.55) |
| EIDSLRYYYAN | GKNNRPS | SSCDSSGFFVF | ND / ND / ND | ND | 4 of 9 (3.74) |
| EGDSLRYYYAN | GVNNRPS | LSRDSSGFNVF | 3.35 / 4.01 / 3.30 | 3.55 | 3 of 9 (3.99) |
| EGYDLRYYYAN | GKNNRPS | SSRDSSHFQVF | 2.37 / 2.25 / 1.68 | 2.10 | 6 of 9 (3.88) |
| EGDSLRYYVAN | GKNNRPS | SSRDGSGFWVF | 3.81 / 3.78 / ND | 3.79 | 2 of 9 (3.45) |
| EGVSLRYFYAN | GKNNRPS | SSRDSSGFQVE | 3.12 / 3.47 / 3.91 | 3.50 | 1 of 9 (3.91) |
| EGDLLRYYYAN | GKNNRPS | SSRDSSARQVF | 4.75 / ND / ND | 4.75 | 5 of 9 (4.50) |
| EGDSLRYYYAN | FKNIRPS | SSRDSSGFQYF | ND / 5.25 / 3.58 | 4.42 | 4 of 9 (3.74) |
| EGDSLRYYYAN | GKNNRPS | SPRASSGFQVA | 2.93 / 2.71 / 2.68 | 2.77 | 1 of 9 (5.05) |
| EGDSLRYEYAN | GKGNRPS | SSRDSSGFYVF | 1.78 / 1.66 / 1.36 | 1.60 | 3 of 9 (4.60) |
| EGDSGRYYYAN | GKNNRPV | SSRDSSGFQCF | ND / 3.15 / ND | 3.15 | 4 of 9 (4.40) |
| EGDSLRYYYAN | GKNNRPS | PSRDSSGFVPF | ND / 3.87 / ND | 3.87 | 3 of 9 (3.96) |

Picked from the list: the 8 lowest averages where every replicate gave a value.

| CDR-L1 | CDR-L2 | CDR-L3 | log10 Kd, replicates | mean log10 Kd (nM) | signal with controls |
|---|---|---|---|---|---|
| EGDSLRYPYAN | GKNNRPS | SSRDSSGFNVC | 1.35 / 1.51 / 1.01 | 1.29 | 3 of 9 (4.12) |
| EGDSLRYEYAN | GKGNRPS | SSRDSSGFYVF | 1.78 / 1.66 / 1.36 | 1.60 | 3 of 9 (4.60) |
| EGKSLRSYYAN | GKNIRPS | SSRDSSGFQVF | 1.98 / 1.72 / 1.32 | 1.67 | 5 of 9 (3.50) |
| EGDSLRYYYAN | GKNNRPS | SSRDTSGDQVR | 1.93 / 1.82 / 1.58 | 1.78 | 3 of 9 (4.55) |
| EGDSLRYYYAN | GANNRPM | SSRDSSGFQVF | 2.16 / 2.11 / 1.96 | 2.08 | 5 of 9 (3.78) |
| EGDSLRYIYAN | GKNNRPS | SSRASSGFQVF | 2.46 / 2.21 / 1.62 | 2.09 | 4 of 9 (4.19) |
| EGYDLRYYYAN | GKNNRPS | SSRDSSHFQVF | 2.37 / 2.25 / 1.68 | 2.10 | 6 of 9 (3.88) |
| HGDSLRYYYAN | GKNNRPS | SSEQSSGFQVF | 2.41 / 2.44 / 1.96 | 2.27 | 0 of 9 |